Assay results reported in article PMC12102759 (Protein Science : A Publication of the Protein Society, 2025).

System: YES SH3
Type: binding, human

| Sequence | PSSM value of the single amino acid variant (DMS by phage display) |
| --- | --- |
| TSSIQSRPLPSPPKFT K14R (TSSIQSRPLPSPPRFT) | 0.01492 |
| TSSIQSRPLPSPPKFT P10A (TSSIQSRPLASPPKFT) | 0.01332 |
| TSSIQSRPLPSPPKFT L9D (TSSIQSRPDPSPPKFT) | 0 |
| TSSIQSRPLPSPPKFT F15E (TSSIQSRPLPSPPKET) | 0.04763 |
| TSSIQSRPLPSPPKFT P12A (TSSIQSRPLPSAPKFT) | 0.0004202 |
| TSSIQSRPLPSPPKFT S11G (TSSIQSRPLPGPPKFT) | 0.0003669 |
| TSSIQSRPLPSPPKFT P8F (TSSIQSRFLPSPPKFT) | 0.002354 |
| TSSIQSRPLPSPPKFT K14I (TSSIQSRPLPSPPIFT) | 0.1182 |
| TSSIQSRPLPSPPKFT T1S (SSSIQSRPLPSPPKFT) | 0.0362 |
| TSSIQSRPLPSPPKFT S11D (TSSIQSRPLPDPPKFT) | 0.06458 |
| TSSIQSRPLPSPPKFT L9M (TSSIQSRPMPSPPKFT) | 0.2832 |
| TSSIQSRPLPSPPKFT P13P | 0.03122 |
| TSSIQSRPLPSPPKFT P12W (TSSIQSRPLPSWPKFT) | 0.0167 |
| TSSIQSRPLPSPPKFT L9V (TSSIQSRPVPSPPKFT) | 0.09901 |
| TSSIQSRPLPSPPKFT I4G (TSSGQSRPLPSPPKFT) | 0.04896 |
| TSSIQSRPLPSPPKFT P8N (TSSIQSRNLPSPPKFT) | 0.04035 |
| TSSIQSRPLPSPPKFT P13Y (TSSIQSRPLPSPYKFT) | 0.145 |
| TSSIQSRPLPSPPKFT S2K (TKSIQSRPLPSPPKFT) | 0 |
| TSSIQSRPLPSPPKFT S2G (TGSIQSRPLPSPPKFT) | 0.2371 |
| TSSIQSRPLPSPPKFT R7V (TSSIQSVPLPSPPKFT) | 0.004412 |
| TSSIQSRPLPSPPKFT I4R (TSSRQSRPLPSPPKFT) | 0.004571 |
| TSSIQSRPLPSPPKFT K14Y (TSSIQSRPLPSPPYFT) | 0.04051 |
| TSSIQSRPLPSPPKFT S11L (TSSIQSRPLPLPPKFT) | 0.00275 |

| Sequence | PSSM value of the single amino acid variant (DMS by phage display) |
| --- | --- |
| TSSIQSRPLPSPPKFT P12E (TSSIQSRPLPSEPKFT) | 0.0109 |
| TSSIQSRPLPSPPKFT L9S (TSSIQSRPSPSPPKFT) | 0.01833 |
| TSSIQSRPLPSPPKFT R7Q (TSSIQSQPLPSPPKFT) | 0.008905 |
| TSSIQSRPLPSPPKFT P10H (TSSIQSRPLHSPPKFT) | 0.01042 |
| TSSIQSRPLPSPPKFT S3M (TSMIQSRPLPSPPKFT) | 0.02226 |
| TSSIQSRPLPSPPKFT S6S | 0.03693 |
| TSSIQSRPLPSPPKFT Q5I (TSSIISRPLPSPPKFT) | 0.07041 |
| TSSIQSRPLPSPPKFT L9E (TSSIQSRPEPSPPKFT) | 0 |
| TSSIQSRPLPSPPKFT P10F (TSSIQSRPLFSPPKFT) | 0 |
| TSSIQSRPLPSPPKFT T1F (FSSIQSRPLPSPPKFT) | 0 |
| TSSIQSRPLPSPPKFT P12G (TSSIQSRPLPSGPKFT) | 0.0004202 |
| TSSIQSRPLPSPPKFT R7S (TSSIQSSPLPSPPKFT) | 0.007591 |
| TSSIQSRPLPSPPKFT P12K (TSSIQSRPLPSKPKFT) | 0.01081 |
| TSSIQSRPLPSPPKFT L9Q (TSSIQSRPQPSPPKFT) | 0 |
| TSSIQSRPLPSPPKFT K14T (TSSIQSRPLPSPPTFT) | 0.09645 |
| TSSIQSRPLPSPPKFT P8A (TSSIQSRALPSPPKFT) | 0.01992 |
| TSSIQSRPLPSPPKFT R7F (TSSIQSFPLPSPPKFT) | 0.01952 |
| TSSIQSRPLPSPPKFT P8D (TSSIQSRDLPSPPKFT) | 0.0302 |
| TSSIQSRPLPSPPKFT S6R (TSSIQRRPLPSPPKFT) | 0 |
| TSSIQSRPLPSPPKFT S3G (TSGIQSRPLPSPPKFT) | 0.003489 |
| TSSIQSRPLPSPPKFT T1Y (YSSIQSRPLPSPPKFT) | 0.05954 |
| TSSIQSRPLPSPPKFT F15M (TSSIQSRPLPSPPKMT) | 0.4794 |
| TSSIQSRPLPSPPKFT P8M (TSSIQSRMLPSPPKFT) | 0.09866 |

| Sequence | PSSM value of the single amino acid variant (DMS by phage display) |
| --- | --- |
| TSSIQSRPLPSPPKFT P13E (TSSIQSRPLPSPEKFT) | 0.00302 |
| TSSIQSRPLPSPPKFT L9F (TSSIQSRPFPSPPKFT) | 0 |
| TSSIQSRPLPSPPKFT P12F (TSSIQSRPLPSFPKFT) | 0.03562 |
| TSSIQSRPLPSPPKFT S6N (TSSIQNRPLPSPPKFT) | 0.03439 |
| TSSIQSRPLPSPPKFT P10T (TSSIQSRPLTSPPKFT) | 0.04316 |
| TSSIQSRPLPSPPKFT S3N (TSNIQSRPLPSPPKFT) | 0.009116 |
| TSSIQSRPLPSPPKFT F15F | 0.04241 |
| TSSIQSRPLPSPPKFT K14V (TSSIQSRPLPSPPVFT) | 0.09876 |
| TSSIQSRPLPSPPKFT Q5L (TSSILSRPLPSPPKFT) | 0.02704 |
| TSSIQSRPLPSPPKFT P10E (TSSIQSRPLESPPKFT) | 0 |
| TSSIQSRPLPSPPKFT Q5R (TSSIRSRPLPSPPKFT) | 0 |
| TSSIQSRPLPSPPKFT S11N (TSSIQSRPLPNPPKFT) | 0.03033 |
| TSSIQSRPLPSPPKFT I4M (TSSMQSRPLPSPPKFT) | 0.005742 |
| TSSIQSRPLPSPPKFT I4L (TSSLQSRPLPSPPKFT) | 0.01916 |
| TSSIQSRPLPSPPKFT K14F (TSSIQSRPLPSPPFFT) | 0.01106 |
| TSSIQSRPLPSPPKFT T1A (ASSIQSRPLPSPPKFT) | 0.238 |
| TSSIQSRPLPSPPKFT F15K (TSSIQSRPLPSPPKKT) | 0.005907 |
| TSSIQSRPLPSPPKFT S2R (TRSIQSRPLPSPPKFT) | 0.009598 |
| TSSIQSRPLPSPPKFT S2Y (TYSIQSRPLPSPPKFT) | 0.007735 |
| TSSIQSRPLPSPPKFT T1N (NSSIQSRPLPSPPKFT) | 0.01294 |
| TSSIQSRPLPSPPKFT L9H (TSSIQSRPHPSPPKFT) | 0 |
| TSSIQSRPLPSPPKFT S2S | 0.04758 |
| TSSIQSRPLPSPPKFT T1D (DSSIQSRPLPSPPKFT) | 0.01283 |

| Sequence | PSSM value of the single amino acid variant (DMS by phage display) |
| --- | --- |
| TSSIQSRPLPSPPKFT F15H (TSSIQSRPLPSPPKHT) | 0.01814 |
| TSSIQSRPLPSPPKFT I4S (TSSSQSRPLPSPPKFT) | 0.1384 |
| TSSIQSRPLPSPPKFT S2N (TNSIQSRPLPSPPKFT) | 0.01206 |
| TSSIQSRPLPSPPKFT Q5D (TSSIDSRPLPSPPKFT) | 0.03906 |
| TSSIQSRPLPSPPKFT S6K (TSSIQKRPLPSPPKFT) | 0.01414 |
| TSSIQSRPLPSPPKFT F15W (TSSIQSRPLPSPPKWT) | 0.03019 |
| TSSIQSRPLPSPPKFT S3A (TSAIQSRPLPSPPKFT) | 0.01428 |
| TSSIQSRPLPSPPKFT I4P (TSSPQSRPLPSPPKFT) | 0.2275 |
| TSSIQSRPLPSPPKFT S2F (TFSIQSRPLPSPPKFT) | 0.005213 |
| TSSIQSRPLPSPPKFT T1K (KSSIQSRPLPSPPKFT) | 0 |
| TSSIQSRPLPSPPKFT P8Q (TSSIQSRQLPSPPKFT) | 0.02961 |
| TSSIQSRPLPSPPKFT P8W (TSSIQSRWLPSPPKFT) | 0.05669 |
| TSSIQSRPLPSPPKFT S11R (TSSIQSRPLPRPPKFT) | 0.003596 |
| TSSIQSRPLPSPPKFT P12D (TSSIQSRPLPSDPKFT) | 0.0008648 |
| TSSIQSRPLPSPPKFT P13T (TSSIQSRPLPSPTKFT) | 0.01047 |
| TSSIQSRPLPSPPKFT R7D (TSSIQSDPLPSPPKFT) | 0.04382 |
| TSSIQSRPLPSPPKFT P8E (TSSIQSRELPSPPKFT) | 0.01785 |
| TSSIQSRPLPSPPKFT R7Y (TSSIQSYPLPSPPKFT) | 0.007554 |
| TSSIQSRPLPSPPKFT S11Q (TSSIQSRPLPQPPKFT) | 0.003114 |
| TSSIQSRPLPSPPKFT Q5M (TSSIMSRPLPSPPKFT) | 0.07195 |
| TSSIQSRPLPSPPKFT L9A (TSSIQSRPAPSPPKFT) | 0.0126 |
| TSSIQSRPLPSPPKFT Q5W (TSSIWSRPLPSPPKFT) | 0.07274 |
